Binding of CDR-mutated scFvs to a peptide of the spike HR2 region

Data: MIT Lincoln Laboratory AlphaSeq set, Engelhart et al. 2022, doi:10.1038/s41597-022-01779-4, as distributed in FLAb.

Target peptide (SARS-CoV-2 spike, HR2 region): PDVDLGDISGINAS

Parent: Ab-91, a human scFv built as VL, three GGGGS repeats, VH. Only the CDRs of the heavy chain vary.
VL: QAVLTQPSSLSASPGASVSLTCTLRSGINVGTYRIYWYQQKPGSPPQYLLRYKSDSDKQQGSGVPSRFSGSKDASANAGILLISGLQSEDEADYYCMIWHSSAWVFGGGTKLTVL
VH: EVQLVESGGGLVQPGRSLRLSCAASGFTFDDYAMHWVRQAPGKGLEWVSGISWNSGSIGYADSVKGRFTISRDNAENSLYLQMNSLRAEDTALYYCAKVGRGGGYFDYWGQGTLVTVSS

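The library (AAYL51) carries one to three amino acid substitutions per variant, with no insertions or deletions. AlphaSeq pools MATa yeast showing the antibodies with MATalpha yeast showing the peptide. Binding brings cells together so that they mate, and sequencing counts the barcode pairs among the diploids. A regression on co-assayed BCL2-family reference pairs converts the normalised counts of each replicate to an apparent Kd. Mating was done three times.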

The parent's heavy chain CDRs are GFTFDDYAMH, GISWNSGSIGYADSVK, VGRGGGYFDY; each variant's own CDRs replace them letter for letter. Affinities are written as log10 Kd with Kd in nM; a lower number is a better binder. Replicates are averaged; those with no signal do not enter the mean. "nd" means that the variant was in the library but no mating with the target was seen in that replicate; the authors take this as a sign of poor binding, and no number exists. In this assay the parent's reference entry averaged 1.86; its copy inside this library read 0.88.

CDR-H1,CDR-H2,CDR-H3,"replicates, log10 nM","mean, log10 nM",signal with controls
GFYFDDYGMQ,GISWNSGSIGYADSVK,VGRGGGYFDY,5.11 / 4.40 / 4.52,4.68,2 of 9 (4.12)
GFTFDDYAMV,GISWYSGSIRYADSVK,VGRGGGYFDY,nd / nd / nd,nd,1 of 9 (4.68)
GETFDDYAMH,LISWNSGSIGYADSLK,VGRGGGYFDY,5.94 / 6.30 / nd,6.12,1 of 9 (4.90)
GFTFDDYHMH,GISWNSGSISYADSVK,GGRGGGYFDY,nd / nd / nd,nd,0 of 9
GFTFDDYQMH,GISWNSGSIGYAASVK,VGQGGGYFDY,4.09 / 4.72 / nd,4.41,4 of 9 (4.63)
GFTFDDFAMH,GISWNSGDIGYADSVK,VGRGGGYFPY,nd / nd / nd,nd,2 of 9 (4.41)
GFTFDGYAMH,GISWNSGSIGYADSFK,VCRGGGYFDY,1.16 / 1.62 / 1.22,1.33,0 of 9
GFTFDDYAMH,KISWNSGSIGYADSEK,VGRVGGYFDY,nd / nd / nd,nd,0 of 9
GFTFDDYAPH,GISWNSGSIGYADSVK,VGDGGGYFDP,4.59 / nd / nd,4.59,3 of 9 (4.61)
GFTFDDYAMH,GISWNSGGIGYADSVI,VGRGGGCFDY,3.44 / 4.20 / 4.71,4.11,1 of 9 (4.58)
GFTFDDYAMH,GISWNSGSIGYADCIK,VGRGTGYFDY,1.72 / 1.73 / 1.15,1.53,2 of 9 (4.37)
GFTGDDYAMH,GISWNSGSIGYADSVK,VGRGGGDFDS,nd / nd / nd,nd,1 of 9 (4.05)
GFTFDDYAMH,GISRNSGSIGYMDSVK,VGRGGGYFDY,3.31 / 3.22 / 3.09,3.21,3 of 9 (4.06)
GFDFDDYAMH,GISWNSGSIGYASSVK,DGRGGGYFDY,nd / nd / nd,nd,2 of 9 (5.12)
IFTFDDYAMH,GISWNSGSIGYADSVK,VGRGVGYFDY,nd / nd / nd,nd,2 of 9 (4.84)
GFTFHDEAMH,GISWNSGSIYYADSVK,VGRGGGYFDY,nd / nd / nd,nd,0 of 9
GFTFDDYAMH,GLSWNSGFIGYADSVK,VQRGGGYFDY,4.20 / 4.66 / 3.65,4.17,1 of 9 (4.27)
GFTFDDYAKH,GISWNSGSIRYADSVK,VGAGGGYFDY,4.45 / nd / nd,4.45,4 of 9 (5.26)
GFTFDDYAMH,GIAWNSGSIGAADSVK,VGRGGGYFDE,nd / nd / nd,nd,0 of 9
GFTTDDYAMH,GISWNSGQIGYADSVK,VGRGGGYFDA,1.44 / 1.54 / 0.67,1.22,1 of 9 (4.61)
GFTFDDYHIH,GISWNSQSIGYADSVK,VGRGGGYFDY,nd / nd / nd,nd,2 of 9 (3.20)
RFTFDDYAMH,GPSWNSGSIGYADSVK,VGRGKGYFDY,4.26 / nd / 4.75,4.50,2 of 9 (4.98)
GFWFDDYAVH,GISWNSGSIGYADSVK,VGRGGGYFDY,nd / 5.07 / 4.33,4.70,1 of 9 (4.64)
GFTFDDYAML,GISWCSGSIGYADSVK,VGRGGGYFHY,nd / nd / nd,nd,0 of 9
GFTFDDYAMH,GINWMSGSAGYADSVK,VGRGGGYFDY,nd / 3.94 / nd,3.94,0 of 9
GFTFDDYAMH,GISWNSGPIGYAASVK,VGRGGGYFDY,nd / nd / nd,nd,0 of 9
GFTFDDYAMH,GISINSGSIGYADSVK,VGRGGGYFAK,4.74 / nd / nd,4.74,4 of 9 (4.07)
NFTFDDYAMH,GISWNSGSIFYADSVY,VGRGGGYFDY,nd / nd / nd,nd,0 of 9
GFTFDDYAMH,GISYNSLSIGYADSVK,VGYGGGYFDY,2.20 / 1.81 / 3.00,2.34,0 of 9
GFTFDTYAMH,GISWYSGSIGYADTVK,VGRGGGYFDY,4.07 / nd / nd,4.07,1 of 9 (3.11)
GFTFCDYAMH,GYSWNSGSIGYADSVR,VGRGGGYFDY,nd / 4.87 / nd,4.87,0 of 9
GFTFDDYNMH,GISWNSGSKGYADSVK,VGRGGGYVDY,nd / nd / nd,nd,0 of 9
GFTFDDYAMH,TISWNSGSIGYADSMK,VGRGGGYFGY,nd / nd / nd,nd,1 of 9 (3.89)

The opening 4 entries, copied out:

{"CDR-H1": "GFYFDDYGMQ", "CDR-H2": "GISWNSGSIGYADSVK", "CDR-H3": "VGRGGGYFDY", "replicates, log10 nM": "5.11 / 4.40 / 4.52", "mean, log10 nM": "4.68", "signal with controls": "2 of 9 (4.12)"}
{"CDR-H1": "GFTFDDYAMV", "CDR-H2": "GISWYSGSIRYADSVK", "CDR-H3": "VGRGGGYFDY", "replicates, log10 nM": "nd / nd / nd", "mean, log10 nM": "nd", "signal with controls": "1 of 9 (4.68)"}
{"CDR-H1": "GETFDDYAMH", "CDR-H2": "LISWNSGSIGYADSLK", "CDR-H3": "VGRGGGYFDY", "replicates, log10 nM": "5.94 / 6.30 / nd", "mean, log10 nM": "6.12", "signal with controls": "1 of 9 (4.90)"}
{"CDR-H1": "GFTFDDYHMH", "CDR-H2": "GISWNSGSISYADSVK", "CDR-H3": "GGRGGGYFDY", "replicates, log10 nM": "nd / nd / nd", "mean, log10 nM": "nd", "signal with controls": "0 of 9"}

Three control strains display no target. For library AAYL51, 21% of the pairings with them gave a signal, with a median of 4.54 and one signal in twenty below 3.26, so weak values seen in few replicates may be background. The control count says in how many pairings with the empty strains this scFv gave a signal, with their mean in brackets.